PubChem BioAssay AID435030 (The Scripps Research Institute Molecular Screening Center, 2010)
This is a selection; strong and weak results do not stand in their true shares. Some results for these compounds are left out of this collection, so the calls shown say nothing about other tests. Calls of active or inactive are those of the source. Rule as the data show it: active = inhibition above about 12%; inactive = the rest.

Assay: reduced growth of AddAB-expressing E. coli cells – absorbance, AddAB inhibitor project, primary screen (AID 435030);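 also: 0% = vehicle wells of infected cells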
Settings: E. coli expressing H. pylori AddAB, at 11.9 µM, active compounds read high

Structure (SMILES) | inhibition
CCN(CC)CC(C)C(C)OC(=O)C(O)(c1ccccc1)c1ccccc1 (centres undefined) | inactive: -0.94%
COc1cc(SC)ccc1C(=O)NCC1(N(C)C)CCCCC1 | inactive: 0.98%
CC(C)N1C(=O)CC2(CCN(CCOC(=O)C(O)(c3ccccc3)c3ccccc3)CC2)C1=O | inactive: 1.66%
Cc1ccc(C(=O)NCC2(N3CCCCC3)CCCCC2)cc1 | inactive: 2.51%
O=C(NCC1(N2CCCCC2)CCCCC1)c1cc([N+](=O)[O-])ccc1Cl | inactive: 2.7%
CN1[C@@H]2CC[C@H]1CC(OC(=O)C(O)(c1ccccc1)c1ccccc1)C2 (some centres undefined) | inactive: -1.01%
C=CCN1CCN(CCOC(=O)C(O)(c2ccccc2)c2ccccc2)CC1 | inactive: 5.24%
O=C(NCC1(N2CCCCC2)CCCCC1)c1cc(F)c(F)cc1Cl | inactive: 3.57%
COc1ccc(C(=O)NCC2(N(C)C)CCCCC2)cc1 | inactive: 0.08%
CCN1CCCC(OC(=O)C2(O)c3ccccc3C=Cc3ccccc32)C1 (centres undefined) | inactive: 2.26%
Cc1cc(C(=O)NCC2(N3CCCCC3)CCCCC2)ccc1[N+](=O)[O-] | inactive: -1.04%
O=C(NCC1(N2CCCCC2)CCCCC1)c1cccc(Br)c1 | inactive: 1.02%
Cc1ccccc1C(=O)NCC1(N2CCCCC2)CCCCC1 | inactive: 0.34%
CN(C)c1ccc(C(=O)NCC2(N(C)C)CCCCC2)cc1 | inactive: 1.56%
CN(C)C1CCCC1OC(=O)C(O)(c1ccccc1)c1ccccc1 (centres undefined) | inactive: 1.72%
COc1cccc(C(=O)NCC2(N3CCCCC3)CCCCC2)c1 | inactive: 0.34%
COc1ccc(Cl)cc1C(=O)NCC1(N(C)C)CCCCC1 | inactive: 1.76%
O=C(NCC1(N2CCCCC2)CCCCC1)c1cccc(Cl)c1 | inactive: 3.52%
CN(C)C1(CNC(=O)c2ccc(Br)cc2)CCCCC1 | inactive: -0.41%
COc1cc(C(=O)NCC2(N(C)C)CCCCC2)c([N+](=O)[O-])cc1OC | inactive: 0.16%
COc1ccc(Br)c(C(=O)NCC2(N3CCCCC3)CCCCC2)c1 | inactive: -0.88%
CC(C)Oc1ccc(C(=O)NCC2(N(C)C)CCCCC2)cc1 | inactive: -0.25%
CN(C)c1cccc(C(=O)NCC2(N(C)C)CCCCC2)c1 | inactive: 3%
O=C(OC1CN2CCC1CC2)C(CO)(c1ccccc1)c1ccccc1 (centres undefined) | inactive: -0.89%
